The target in the test is EGFR T790M L858R (Homo sapiens, UniProt P00533, L858R/T790M). In words: biochemical. Conditions: EGFR(T790M/L858R) Ki (μM), 5 μM ATP, 30 min, room temperature; apparent Ki (Morrison) converted by Cheng-Prusoff, Km of ATP 1.3 μM.

Sequences of proteins named here, by UniProt entry; tags and fusion partners are left off. Residues count along the entry.
UniProt P00533, 25-1210 T790M/L858R limits assumed: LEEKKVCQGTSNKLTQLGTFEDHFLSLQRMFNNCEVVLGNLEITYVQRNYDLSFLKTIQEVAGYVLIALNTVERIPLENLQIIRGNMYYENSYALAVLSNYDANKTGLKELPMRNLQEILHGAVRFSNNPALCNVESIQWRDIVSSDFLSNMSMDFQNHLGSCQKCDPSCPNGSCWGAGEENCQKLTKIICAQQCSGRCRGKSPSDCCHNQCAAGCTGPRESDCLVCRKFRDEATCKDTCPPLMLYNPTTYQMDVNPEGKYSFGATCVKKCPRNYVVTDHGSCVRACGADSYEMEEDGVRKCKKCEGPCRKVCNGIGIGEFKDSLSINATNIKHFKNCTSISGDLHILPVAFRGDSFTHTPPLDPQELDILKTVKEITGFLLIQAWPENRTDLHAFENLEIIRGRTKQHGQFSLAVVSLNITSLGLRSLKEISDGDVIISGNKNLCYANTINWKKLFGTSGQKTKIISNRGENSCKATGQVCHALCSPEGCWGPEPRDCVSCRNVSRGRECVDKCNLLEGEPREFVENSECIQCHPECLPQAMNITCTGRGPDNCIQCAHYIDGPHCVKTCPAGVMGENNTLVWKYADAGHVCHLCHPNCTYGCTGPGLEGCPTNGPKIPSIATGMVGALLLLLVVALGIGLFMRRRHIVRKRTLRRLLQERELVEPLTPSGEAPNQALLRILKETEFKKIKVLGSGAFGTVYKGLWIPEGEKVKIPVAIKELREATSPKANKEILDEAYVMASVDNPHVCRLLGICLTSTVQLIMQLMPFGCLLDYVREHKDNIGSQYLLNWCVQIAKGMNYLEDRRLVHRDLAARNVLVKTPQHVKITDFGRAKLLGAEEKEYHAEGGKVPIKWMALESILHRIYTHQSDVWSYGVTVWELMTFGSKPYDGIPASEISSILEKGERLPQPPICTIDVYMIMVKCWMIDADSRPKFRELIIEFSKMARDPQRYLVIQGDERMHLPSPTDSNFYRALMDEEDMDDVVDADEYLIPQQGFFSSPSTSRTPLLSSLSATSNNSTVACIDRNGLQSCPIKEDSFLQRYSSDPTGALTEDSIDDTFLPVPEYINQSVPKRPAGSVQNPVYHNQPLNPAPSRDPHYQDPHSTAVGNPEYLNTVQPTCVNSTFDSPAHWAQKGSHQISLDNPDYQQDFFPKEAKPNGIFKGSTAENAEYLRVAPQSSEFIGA

Each structure is given as a SMILES string.

The record followed here is patent US9890152B2 (Genentech, Inc., priority 2012, dated 2018).

Consider `CC(C)n1cc(-c2cn3c(n2)CNCC3)c2cnc(Nc3ccnc(-c4cnn(S(=O)(=O)C5CC5)c4)n3)cc21` [Example 442, N-(2-(1-(cyclopropylsulfonyl)-1H-pyrazol-4-yl)pyrimidin-4-yl)-1-isopropyl-3-(5,6,7,8-tetrahydroimidazo[1,2-a]pyrazin-2-yl)-1H-pyrrolo[3,2-c]pyridin-6-amine], for which the Ki turned out to be 0.00133 µM.

Take `CC(C)n1cc(-c2cnn(CC(=O)N3CCN(C)CC3)c2)c2cnc(Nc3ccnc(-c4cnn(S(=O)(=O)C5CC5)c4)n3)cc21` [Example 443, 2-(4-(6-(2-(1-(cyclopropylsulfonyl)-1H-pyrazol-4-yl)pyrimidin-4-ylamino)-1-isopropyl-1H-pyrrolo[3,2-c]pyridin-3-yl)-1H-pyrazol-1-yl)-1-(4-methylpiperazin-1-yl)ethanone]: the Ki came out at 0.00129 µM.

As to `CCS(=O)(=O)n1cc(-c2nccc(Nc3cc4c(cn3)c(-c3cnn(CC(=O)NC5CCOCC5)c3)cn4C(C)C)n2)cn1` [Example 444, 2-(4-(6-(2-(1-(ethylsulfonyl)-1H-pyrazol-4-yl)pyrimidin-4-ylamino)-1-isopropyl-1H-pyrrolo[3,2-c]pyridin-3-yl)-1H-pyrazol-1-yl)-H-(tetrahydro-2H-pyran-4-yl)acetamide], the Ki worked out at 0.00114 µM.

With `COC1(CO)CCN(c2nccc(Nc3cc4c(cn3)c(-c3cnn(CC(N)=O)c3)cn4C(C)C)n2)CC1` [Example 446, 2-(4-(6-(2-(4-(hydroxymethyl)-4-methoxypiperidin-1-yl)pyrimidin-4-ylamino)-1-isopropyl-1H-pyrrolo[3,2-c]pyridin-3-yl)-1H-pyrazol-1-yl)acetamide], the Ki was found to be 0.0023 µM.

Regarding `CCNC(=O)Cn1cc(-c2cn(C(C)C)c3cc(Nc4ccnc(-c5cnn(S(=O)(=O)CC)c5)n4)ncc23)cn1` [Example 447, N-ethyl-2-(4-(6-(2-(1-(ethylsulfonyl)-1H-pyrazol-4-yl)pyrimidin-4-ylamino)-1-isopropyl-1H-pyrrolo[3,2-c]pyridin-3-yl)-1H-pyrazol-1-yl)acetamide], the Ki was determined as 0.00106 µM.

Take `CCS(=O)(=O)n1cc(-c2nccc(Nc3cc4c(cn3)c(C(=O)NC3COC3)cn4C(C)C)n2)cn1` [Example 448, 6-(2-(1-(ethylsulfonyl)-1H-pyrazol-4-yl)pyrimidin-4-ylamino)-1-isopropyl-N-(oxetan-3-yl)-1H-pyrrolo[3,2-c]pyridine-3-carboxamide]: the Ki stood at 0.0016 µM.

Turning to `COC1CCN(c2nccc(Nc3cc4c(cn3)c(C(=O)NC3CCN(C5COC5)CC3)cn4C(C)C)n2)CC1` [Example 449, 1-isopropyl-6-(2-(4-methoxypiperidin-1-yl)pyrimidin-4-ylamino)-N-(1-(oxetan-3-yl)piperidin-4-yl)-1H-pyrrolo[3,2-c] pyridine-3-carboxamide], the Ki came out at 0.00406 µM.

Regarding `CC(C)n1cc(C(=O)N[C@@H]2C[C@@H](O)[C@@H](O)C2)c2cnc(Nc3ccnc(-c4cnn(S(=O)(=O)C5CC5)c4)n3)cc21` [Example 450, 6-(2-(1-(cyclopropylsulfonyl)-1H-pyrazol-4-yl)pyrimidin-4-ylamino)-N-((1s,3S,4R)-3,4-dihydroxycyclopentyl)-1-isopropyl-1H-pyrrolo[3,2-c]pyridine-3-carboxamide], the Ki came to 0.000779 µM.

`CC(C)n1cc(C(=O)N[C@H]2C[C@@H](O)[C@@H](O)C2)c2cnc(Nc3ccnc(-c4cnn(S(=O)(=O)C5CC5)c4)n3)cc21` [Example 451, 6-(2-(1-(cyclopropylsulfonyl)-1H-pyrazol-4-yl)pyrimidin-4-ylamino)-N-((1r,3R,4S)-3,4-dihydroxycyclopentyl)-1-isopropyl-1H-pyrrolo[3,2-c]pyridine-3-carboxamide]: the Ki came to 0.000674 µM.

For the compound `CC(C)n1cc(C(=O)NCCS(C)(=O)=O)c2cnc(Nc3ccnc(-c4cnn(S(=O)(=O)C5CC5)c4)n3)cc21` [Example 452, 6-(2-(1-(cyclopropylsulfonyl)-1H-pyrazol-4-yl)pyrimidin-4-ylamino)-1-isopropyl-N-(2-(methylsulfonyl)ethyl)-1H-pyrrolo[3,2-c]pyridine-3-carboxamide], the Ki was determined as 0.00166 µM.

Take `CC(C)n1cc(C(=O)NC2CCOC2)c2cnc(Nc3ccnc(-c4cnn(S(=O)(=O)C5CC5)c4)n3)cc21` (centres unmarked) [Example 453, 6-(2-(1-(cyclopropylsulfonyl)-1H-pyrazol-4-yl)pyrimidin-4-ylamino)-1-isopropyl-N-(tetrahydrofuran-3-yl)-1H-pyrrolo[3,2-c]pyridine-3-carboxamide]: the Ki stood at 0.000489 µM.

As for `CC(C)n1cc(C(=O)NC2CCC(O)CC2)c2cnc(Nc3ccnc(-c4cnn(S(=O)(=O)C5CC5)c4)n3)cc21` (centres unmarked) [Example 454, 6-(2-(1-(cyclopropylsulfonyl)-1H-pyrazol-4-yl)pyrimidin-4-ylamino)-N-(4-hydroxycyclohexyl)-1-isopropyl-1H-pyrrolo[3,2-c]pyridine-3-carboxamide], the Ki stood at 0.000548 µM.

As to `CC(C)n1cc(C(=O)NC2CC[S+]([O-])CC2)c2cnc(Nc3ccnc(-c4cnn(S(=O)(=O)C5CC5)c4)n3)cc21` (centres unmarked) [Example 455, 6-((2-(1-(cyclopropylsulfonyl)-1H-pyrazol-4-yl)pyrimidin-4-yl)amino)-1-isopropyl-N-(1-oxidotetrahydro-2H-thiopyran-4-yl)-1H-pyrrolo[3,2-c]pyridine-3-carboxamide], the Ki worked out at 0.000736 µM.

With `CC(C)n1cc(C(=O)NC2CC[S+]([O-])CC2)c2cnc(Nc3ccnc(-c4cnn(S(=O)(=O)C5CC5)c4)n3)cc21` (centres unmarked) [Example 456, 6-((2-(1-(cyclopropylsulfonyl)-1H-pyrazol-4-yl)pyrimidin-4-yl)amino)-1-isopropyl-N-(1-oxidotetrahydro-2H-thiopyran-4-yl)-1H-pyrrolo[3,2-c]pyridine-3-carboxamide], the Ki came out at 0.000728 µM.

As for `CC(C)n1cc(C(=O)NC2CCS(=O)(=O)CC2)c2cnc(Nc3ccnc(-c4cnn(S(=O)(=O)C5CC5)c4)n3)cc21` [Example 457, 6-((2-(1-(cyclopropylsulfonyl)-1H-pyrazol-4-yl)pyrimidin-4-yl)amino)-N-(1,1-dioxidotetrahydro-2H-thiopyran-4-yl)-1-isopropyl-1H-pyrrolo[3,2-c]pyridine-3-carboxamide], the Ki came out at 0.000528 µM.

On to `CC(C)n1cc(C(=O)NC2CCSCC2)c2cnc(Nc3ccnc(-c4cnn(S(=O)(=O)C5CC5)c4)n3)cc21` [Example 458, 6-(2-(1-(cyclopropylsulfonyl)-1H-pyrazol-4-yl)pyrimidin-4-ylamino)-1-isopropyl-N-(tetrahydro-2H-thiopyran-4-yl)-1H-pyrrolo[3,2-c]pyridine-3-carboxamide], for which the Ki was 0.00139 µM.

With `CC(C)n1cc(C(=O)NC2CCCOC2)c2cnc(Nc3ccnc(-c4cnn(S(=O)(=O)C5CC5)c4)n3)cc21` (centres unmarked) [Example 459, 6-(2-(1-(cyclopropylsulfonyl)-1H-pyrazol-4-yl)pyrimidin-4-ylamino)-1-isopropyl-N-(tetrahydro-2H-pyran-3-yl)-1H-pyrrolo[3,2-c]pyridine-3-carboxamide], the Ki stood at 0.0006 µM.

Turning to `CC(C)n1cc(C2CC(=O)N(CCO)C2)c2cnc(Nc3ccnc(-c4cnn(S(=O)(=O)C5CC5)c4)n3)cc21` (centres unmarked) [Example 460, 4-(6-(2-(1-(cyclopropylsulfonyl)-1H-pyrazol-4-yl)pyrimidin-4-ylamino)-1-isopropyl-1H-pyrrolo[3,2-c]pyridin-3-yl)-1-(2-hydroxyethyl)pyrrolidin-2-one], the Ki amounted to 0.0905 µM.

On to `Cc1nc2cnc(Nc3ccnc(-c4cnn(S(=O)(=O)C5CC5)c4)n3)cc2[nH]1` [Example 461, N-(2-(1-(cyclopropylsulfonyl)-1H-pyrazol-4-yl)pyrimidin-4-yl)-2-methyl-1H-imidazo[4,5-c]pyridin-6-amine], for which the Ki stood at 0.0829 µM.

Turning to `Cc1nc2cnc(Nc3ccnc(NCC(C)(C)C(=O)N(C)C)n3)cc2n1C(C)C` [Example 462, 3-(4-(1-isopropyl-2-methyl-1H-imidazo[4,5-c]pyridin-6-ylamino)pyrimidin-2-ylamino)-N,N,2,2-tetramethylpropanamide], the Ki is 0.137 µM.

As for `CNC(=O)C(C)(C)CNc1nccc(Nc2cc3c(cn2)nc(C)n3C(C)C)n1` [Example 463, 3-(4-(1-isopropyl-2-methyl-1H-imidazo[4,5-c]pyridin-6-ylamino)pyrimidin-2-ylamino)-N,2,2-trimethylpropanamide], the Ki worked out at 0.345 µM.

For the compound `Cc1nc2cnc(Nc3ccnc(-c4cnn(S(=O)(=O)C5CC5CO)c4)n3)cc2n1C(C)C` (centres unmarked) [Example 464, (2-(4-(4-(1-isopropyl-2-methyl-1H-imidazo[4,5-c]pyridin-6-ylamino)pyrimidin-2-yl)-1H-pyrazol-1-ylsulfonyl)cyclopropyl)methanol], the Ki worked out at 0.0172 µM.

For `Cc1nc2cnc(Nc3ccnc(-c4cnn(S(=O)(=O)C5CNC(=O)C5)c4)n3)cc2n1C(C)C` (centres unmarked) [Example 465, 4-(4-(4-(1-isopropyl-2-methyl-1H-imidazo[4,5-c]pyridin-6-ylamino)pyrimidin-2-yl)-1H-pyrazol-1-ylsulfonyl)pyrrolidin-2-one], the Ki came to 0.00224 µM.

In the case of `CC(=O)N1CC(S(=O)(=O)n2cc(-c3nccc(Nc4cc5c(cn4)nc(C)n5C(C)C)n3)cn2)C1` [Example 466, 1-(3-(4-(4-(1-isopropyl-2-methyl-1H-imidazo[4,5-c]pyridin-6-ylamino)pyrimidin-2-yl)-1H-pyrazol-1-ylsulfonyl)azetidin-1-yl)ethanone], the Ki stood at 0.0381 µM.

As for `Cc1nc2cnc(Nc3ccnc(-c4cnn(S(=O)(=O)C5CNC5)c4)n3)cc2n1C(C)C` [Example 467, N-(2-(1-(azetidin-3-ylsulfonyl)-1H-pyrazol-4-yl)pyrimidin-4-yl)-1-isopropyl-2-methyl-1H-imidazo[4,5-c]pyridin-6-amine], the Ki is 0.00629 µM.

As for `Cc1nc2cnc(Nc3ccnc(-c4cnn(S(=O)(=O)C5CN(C)C5)c4)n3)cc2n1C(C)C` [Example 468, 1-isopropyl-2-methyl-N-(2-(1-(1-methylazetidin-3-ylsulfonyl)-1H-pyrazol-4-yl)pyrimidin-4-yl)-1H-imidazo[4,5-c]pyridin-6-amine], the Ki was determined as 0.0563 µM.
